The record followed here is patent US20240360154A1, “AROYL SUBSTITUTED TRICYCLIC COMPOUND, PREPARATION METHOD THEREFOR AND USE THEREOF” (GENFLEET THERAPEUTICS (SHANGHAI) INC., priority 2020, published 2024).

Amino acid sequences for entries named in this document (tags omitted). A change or cut given only in a name is not applied to a line headed by its entry.
UniProt Q06187, whole entry: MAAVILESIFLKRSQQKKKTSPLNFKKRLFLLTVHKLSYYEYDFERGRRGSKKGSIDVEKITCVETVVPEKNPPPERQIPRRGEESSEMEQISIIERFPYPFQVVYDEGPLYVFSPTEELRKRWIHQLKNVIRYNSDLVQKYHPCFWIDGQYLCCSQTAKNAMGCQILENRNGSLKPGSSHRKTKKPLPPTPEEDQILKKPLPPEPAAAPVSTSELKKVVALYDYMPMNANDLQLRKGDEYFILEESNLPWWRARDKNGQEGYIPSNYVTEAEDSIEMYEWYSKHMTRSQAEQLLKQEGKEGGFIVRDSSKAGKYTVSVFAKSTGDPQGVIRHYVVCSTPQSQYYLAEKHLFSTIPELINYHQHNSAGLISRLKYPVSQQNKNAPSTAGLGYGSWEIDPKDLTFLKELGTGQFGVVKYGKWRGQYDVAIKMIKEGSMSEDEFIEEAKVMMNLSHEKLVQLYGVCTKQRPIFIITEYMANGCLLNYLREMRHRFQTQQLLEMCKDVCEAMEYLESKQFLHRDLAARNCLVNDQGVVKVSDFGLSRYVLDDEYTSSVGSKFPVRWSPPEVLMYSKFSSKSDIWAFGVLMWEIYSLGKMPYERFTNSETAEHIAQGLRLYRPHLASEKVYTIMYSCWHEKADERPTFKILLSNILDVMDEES
UniProt Q06187, whole entry C481S: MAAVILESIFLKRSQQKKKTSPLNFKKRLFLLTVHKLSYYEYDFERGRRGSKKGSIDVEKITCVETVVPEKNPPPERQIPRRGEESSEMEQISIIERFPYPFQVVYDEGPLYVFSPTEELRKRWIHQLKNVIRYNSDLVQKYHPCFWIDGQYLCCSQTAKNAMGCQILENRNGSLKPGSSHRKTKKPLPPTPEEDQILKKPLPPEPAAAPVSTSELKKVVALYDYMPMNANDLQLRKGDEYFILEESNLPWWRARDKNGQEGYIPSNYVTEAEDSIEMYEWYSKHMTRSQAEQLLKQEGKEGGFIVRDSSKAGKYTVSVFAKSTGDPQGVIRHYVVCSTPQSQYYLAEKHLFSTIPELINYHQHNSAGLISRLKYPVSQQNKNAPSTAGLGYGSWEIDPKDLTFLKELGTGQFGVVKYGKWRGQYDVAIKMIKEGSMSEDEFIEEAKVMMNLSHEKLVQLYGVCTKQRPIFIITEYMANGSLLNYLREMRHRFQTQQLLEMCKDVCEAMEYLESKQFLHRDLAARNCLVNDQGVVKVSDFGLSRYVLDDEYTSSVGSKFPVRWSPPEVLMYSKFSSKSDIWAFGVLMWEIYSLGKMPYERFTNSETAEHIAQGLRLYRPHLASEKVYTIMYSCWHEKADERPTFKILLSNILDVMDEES

The target of test [1] is BTK (C481S) (Homo sapiens (Human), UniProt Q06187, C481S). Description: BTK C481S enzyme experiment (ADP-Glo kinase assay). The following applies: read-out: BTK(C481S) IC50; 10 nM BTK C481S, ATP 125 μM, Poly(Glu4, Tyr1), 90 minutes at 20° C. The method, then:
(§1) A 3-fold gradient concentration stock solution of 1000× compound was prepared using DMSO and diluted 100-fold to 10× compound stock solution using reaction buffer (50 mM HEPES, pH 7.5, 0.0015% Briji-35, 2 mM DTT, 10 mM MgCl2), and the 10× compound stock solution was transferred to a 384-well plate. Enzyme reactions were set up with BTK Kinase Enzyme System (Promega Catalog #V2941) or BTK (C481S) Kinase Enzyme System (Promega Catalog #VA7033). First, a 2× enzyme solution containing 10 nM BTK or 10 nM BTK C481S was prepared with reaction buffer and added to the plate, and incubated with the compound for 10 minutes. Then, a 2.5× substrate solution containing ATP (125 μM) and Poly(Glu4, Tyr1) (0.05 μg/μL) was prepared with reaction buffer and added to the plate, and reacted at 20° C. for 90 minutes. Finally, the kinase activity was detected according to the experimental steps provided by ADP-Glo™ kinase Assay Kit (Promega, #V9101), and finally the luminescence chemiluminescence value was read. DMSO was used as the maximum signal value, and adding no enzyme was used as the minimum signal value. The inhibition rate of the compound (%)=(maximum signal value−compound signal value)/(maximum signal value−minimum signal value)×100% was calculated. The compound gradient dilution concentration and the corresponding inhibition rate of the enzyme activity were fit by using XLFit four-parameter method, and IC50 value was calculated.

The subject of test [2] is OCI-LY10 cells. Description: OCI-LY10 proliferation inhibition experiment. To be noted: read-out: OCI-ly10 IC50; human diffuse large B lymphoma cells, three days incubation. The method, then:
(§2) TMD-8 cells are human diffuse large B lymphoma (Mingzhou Bio, MZ-0832), cultured in 10% FBS+1% PS 1640 medium; OCI-LY10 is human diffuse large B lymphoma (BeNa Culture Collection, BNCC337742), cultured in 10% FBS+1% PS IMDM. Day 1: Cells at logarithmic growth phase were taken, counted and inoculated 600 TMD-8 or 2000 OCI-LY10 cells in a 384-well cell culture plate and cultured overnight. Day 2: A 3-fold gradient concentration stock solution of 400× compound was prepared with DMSO, and diluted 40-fold to a 10× compound stock solution with culture medium. The 10× compound stock solution was added to each cell culture well with a final concentration of 1× compound stock solution and a DMSO content of 0.25%. DMSO was used as experimental control, and culture medium was used as blank control. The incubation was continued for three days after compound addition. On the fifth day, 25 μL of […] was added to each well, mixed well and incubated for 10 minutes, then the chemiluminescence value (RLU value) was read. The cell proliferation inhibition rate (%)=(RLUcontrol−RLUcompound)/(RLUcontrol−RLUblank)×100% was calculated. The compound gradient dilution concentration and the corresponding cell proliferation inhibition rate were fit by using XLFit four-parameter method, and IC50 value was calculated.

The subject of test [3] is TMD-8 cells. Description: TMD-8 proliferation inhibition experiment. The following applies: read-out: TMD-8 IC50; human diffuse large B lymphoma cells, three days incubation. The procedure:
as §2

Test [4] deals with BTK (Homo sapiens (Human), UniProt Q06187). Description: BTK enzyme experiment (ADP-Glo kinase assay). The following applies: read-out: BTK(WT) IC50; 10 nM BTK, ATP 125 μM, Poly(Glu4, Tyr1), 90 minutes at 20° C. The method, then:
as §1

Test [5] concerns the target p-BTK (WT) (Homo sapiens (Human), UniProt Q06187). The test is described as follows: p-BTK cell experiment, HEK293 transfected with WT-BTK plasmid (P-BTK Y223 sandwich ELISA). The following applies: read-out: HEK293 p-BTK (WT) IC50, HEK293 cells, compound cultured for two hours. The method, then:
(§3) Day 1: HEK293 cells (ADDEXBIO, T0011001) at logarithmic growth phase were taken, digested with enzyme EDTA, collected and counted, and 2E6 cells were inoculated in a 10 cm culture dish and cultured overnight. Day 2: A mixed solution containing 6 μg of WT-BTK/C481S-BTK plasmid and 18 μL of FuGENE HD transfection reagent was prepared by using 1000 μL of Opti-MEM. After standing at room temperature for 10 minutes, the mixed solution was slowly added to the culture dish with a pipettor and cultured overnight. Day 3: The culture dish was taken out, and the cells were digested with enzyme EDTA, collected and counted, and 1E4 cells were inoculated in a 96-well cell culture plate and cultured overnight. A 3.16-fold gradient concentration stock solution of 1000× compound was prepared using DMSO, and placed at room temperature. Day 4: A prepared 1000× compound stock solution was taken, and diluted 200-fold to 5× compound stock solution with culture medium. 5× compound stock solution was added to each cell culture well with a final concentration of 1× compound stock solution and a DMSO content of 0.1%. DMSO was used as an experimental control. After the compound was added and cultured for two hours, the residual culture medium was removed. 100 μL of cell lysis buffer was added to each well, stood on ice for 30 minutes, and ultrasonically lysed with ice water for 5 minutes. After diluting the cell lysate in proportion, 80 μL of the mixture was transfer to an ELISA plate, and 80 μL of cell lysis buffer was added to the blank well. After incubating in an incubator at 37° C. for 2 hours, the plate was taken and the antibody incubation and color development termination operation were completed according to the instructions of Pathscan P-BTK (Y223) Sandwich ELISA Kit (Cell Signaling #23843 CA), and finally the OD value was read. The inhibition rate of the compound (%)=(ODcontrol−ODcompound)/(ODcontrol−ODblank)×100% was calculated. The compound gradient dilution concentration and the corresponding cell proliferation inhibition rate were fit by using Prism 8 four-parameter method, and IC50 value was calculated.

The target of test [6] is p-BTK (C481S) (Homo sapiens (Human), UniProt Q06187, C481S). Description: p-BTK cell experiment, HEK293 transfected with C481S-BTK plasmid (P-BTK Y223 sandwich ELISA). To be noted: read-out: HEK293 p-BTK (C481S) IC50, HEK293 cells, compound cultured for two hours. The procedure: as §3

For the compound `CN1C(=O)C2(CCOC2)Nc2c1cnc1[nH]cc(C(=O)c3ccc(Oc4ccccc4)cc3Cl)c21` (stereo not shown), the IC50 worked out at 0.0352 µM in test [1]; 0.903 µM in test [2]; 0.247 µM in test [3]; 0.0489 µM in test [4]; 0.359 µM in test [5]; 0.34 µM in test [6].
`N#CC1CCC2(C1)Nc1c(cnc3[nH]cc(C(=O)c4ccc(Oc5ccccc5)cc4Cl)c13)NC2=O` (stereo not shown): the IC50 in test [3] was determined as 0.142 µM.
As to `O=C(c1ccc(Oc2ccccc2)cc1Cl)c1c[nH]c2ncc3c(c12)N[C@@]1(CC[C@@H](CO)OC1)C(=O)N3`, the half-inhibitory concentration (IC50) in test [5] turned out to be 0.053 µM; in test [6] it was 0.135 µM.
`O=C(c1ccc(Oc2ccccc2)cc1Cl)c1c[nH]c2ncc3c(c12)N[C@@]1(CC[C@@H](CO)OC1)C(=O)N3` (single isomer, unassigned): the IC50 stood at 0.0041 µM in test [1], 0.0642 µM in test [3] and 0.0036 µM in test [4].
For `O=C(c1ccc(Oc2ccccc2)cc1Cl)c1c[nH]c2ncc3c(c12)N[C@]1(CC[C@@H](CO)OC1)C(=O)N3` (single isomer, unassigned), the IC50 in test [1] was found to be 0.0034 µM; in test [3] it was 0.0508 µM; in test [4], 0.0043 µM; in test [5], 0.0481 µM; in test [6], 0.0501 µM.
The corresponding values for `O=C(c1ccc(Oc2ccccc2)cc1Cl)c1c[nH]c2ncc3c(c12)N[C@]1(CC[C@H](CO)OC1)C(=O)N3` (single isomer, unassigned) are 0.0048 µM, 0.0497 µM, 0.0055 µM, 0.0251 µM and 0.079 µM.
